Reference: ChEMBL document CHEMBL6096677, “Discovery of HZS60 as a Novel Brain Penetrant NMDAR/TRPM4 Interaction Interface Inhibitor with Improved Activity and Pharmacokinetic Properties for the Treatment of Cerebral Ischemia” (J Med Chem, 2025)

Sequences of proteins named here, by UniProt entry; tags and fusion partners are left off. A change or cut given only in a name is not applied to a line headed by its entry.
UniProt Q91ZU9: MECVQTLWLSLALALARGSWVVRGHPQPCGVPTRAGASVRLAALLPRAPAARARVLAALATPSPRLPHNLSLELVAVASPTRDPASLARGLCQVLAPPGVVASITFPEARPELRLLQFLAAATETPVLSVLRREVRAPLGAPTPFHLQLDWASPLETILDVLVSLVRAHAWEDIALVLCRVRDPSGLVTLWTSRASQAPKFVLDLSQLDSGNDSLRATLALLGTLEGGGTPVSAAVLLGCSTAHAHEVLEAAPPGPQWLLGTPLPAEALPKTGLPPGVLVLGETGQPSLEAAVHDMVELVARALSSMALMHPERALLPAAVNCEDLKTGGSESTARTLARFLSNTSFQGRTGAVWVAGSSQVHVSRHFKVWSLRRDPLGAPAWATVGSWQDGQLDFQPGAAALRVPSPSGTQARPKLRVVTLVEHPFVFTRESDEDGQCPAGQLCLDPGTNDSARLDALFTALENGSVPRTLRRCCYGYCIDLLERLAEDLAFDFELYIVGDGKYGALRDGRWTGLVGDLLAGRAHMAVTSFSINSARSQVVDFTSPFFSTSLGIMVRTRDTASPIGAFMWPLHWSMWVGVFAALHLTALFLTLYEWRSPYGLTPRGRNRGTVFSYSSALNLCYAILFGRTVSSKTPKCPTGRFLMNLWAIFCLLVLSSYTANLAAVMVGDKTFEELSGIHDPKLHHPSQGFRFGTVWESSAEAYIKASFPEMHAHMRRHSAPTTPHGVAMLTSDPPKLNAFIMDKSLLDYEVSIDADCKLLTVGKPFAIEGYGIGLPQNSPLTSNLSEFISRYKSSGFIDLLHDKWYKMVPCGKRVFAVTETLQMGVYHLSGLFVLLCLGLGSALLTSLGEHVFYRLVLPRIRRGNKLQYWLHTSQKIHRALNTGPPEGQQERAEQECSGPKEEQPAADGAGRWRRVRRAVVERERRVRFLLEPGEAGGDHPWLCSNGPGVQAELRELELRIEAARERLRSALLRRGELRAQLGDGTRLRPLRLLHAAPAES
UniProt Q03391: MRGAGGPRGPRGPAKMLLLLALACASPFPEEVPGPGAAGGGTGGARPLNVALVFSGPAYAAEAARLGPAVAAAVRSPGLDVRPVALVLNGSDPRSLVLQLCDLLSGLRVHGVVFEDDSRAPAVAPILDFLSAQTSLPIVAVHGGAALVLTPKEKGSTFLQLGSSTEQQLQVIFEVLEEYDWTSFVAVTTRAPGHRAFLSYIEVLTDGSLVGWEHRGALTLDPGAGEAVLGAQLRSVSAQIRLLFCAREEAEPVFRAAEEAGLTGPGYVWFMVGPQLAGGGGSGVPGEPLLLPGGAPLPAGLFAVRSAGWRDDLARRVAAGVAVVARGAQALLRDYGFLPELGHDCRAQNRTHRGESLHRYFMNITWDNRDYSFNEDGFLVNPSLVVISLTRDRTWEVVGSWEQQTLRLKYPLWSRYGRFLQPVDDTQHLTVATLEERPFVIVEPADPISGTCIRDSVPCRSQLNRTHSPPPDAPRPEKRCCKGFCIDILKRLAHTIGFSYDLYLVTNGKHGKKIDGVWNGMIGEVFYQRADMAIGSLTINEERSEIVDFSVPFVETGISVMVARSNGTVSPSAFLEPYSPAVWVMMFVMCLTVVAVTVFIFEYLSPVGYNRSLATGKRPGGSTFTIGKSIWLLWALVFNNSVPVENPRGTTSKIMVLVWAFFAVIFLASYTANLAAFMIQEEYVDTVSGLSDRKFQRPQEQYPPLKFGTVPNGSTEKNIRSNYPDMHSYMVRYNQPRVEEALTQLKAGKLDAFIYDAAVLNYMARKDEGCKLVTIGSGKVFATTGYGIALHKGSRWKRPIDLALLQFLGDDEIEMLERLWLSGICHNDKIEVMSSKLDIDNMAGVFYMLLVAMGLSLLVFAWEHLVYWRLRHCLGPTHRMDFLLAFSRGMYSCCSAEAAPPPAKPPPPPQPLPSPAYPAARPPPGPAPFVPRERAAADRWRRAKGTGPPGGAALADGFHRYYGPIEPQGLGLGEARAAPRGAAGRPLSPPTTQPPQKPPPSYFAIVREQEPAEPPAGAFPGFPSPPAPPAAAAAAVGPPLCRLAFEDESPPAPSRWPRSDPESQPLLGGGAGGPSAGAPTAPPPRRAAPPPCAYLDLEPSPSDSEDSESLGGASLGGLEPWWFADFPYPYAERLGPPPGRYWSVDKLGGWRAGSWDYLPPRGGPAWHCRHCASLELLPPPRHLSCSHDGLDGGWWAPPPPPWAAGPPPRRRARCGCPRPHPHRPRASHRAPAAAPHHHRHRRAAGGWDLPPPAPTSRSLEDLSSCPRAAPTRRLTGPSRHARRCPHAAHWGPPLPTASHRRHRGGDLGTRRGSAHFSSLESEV
UniProt Q01097: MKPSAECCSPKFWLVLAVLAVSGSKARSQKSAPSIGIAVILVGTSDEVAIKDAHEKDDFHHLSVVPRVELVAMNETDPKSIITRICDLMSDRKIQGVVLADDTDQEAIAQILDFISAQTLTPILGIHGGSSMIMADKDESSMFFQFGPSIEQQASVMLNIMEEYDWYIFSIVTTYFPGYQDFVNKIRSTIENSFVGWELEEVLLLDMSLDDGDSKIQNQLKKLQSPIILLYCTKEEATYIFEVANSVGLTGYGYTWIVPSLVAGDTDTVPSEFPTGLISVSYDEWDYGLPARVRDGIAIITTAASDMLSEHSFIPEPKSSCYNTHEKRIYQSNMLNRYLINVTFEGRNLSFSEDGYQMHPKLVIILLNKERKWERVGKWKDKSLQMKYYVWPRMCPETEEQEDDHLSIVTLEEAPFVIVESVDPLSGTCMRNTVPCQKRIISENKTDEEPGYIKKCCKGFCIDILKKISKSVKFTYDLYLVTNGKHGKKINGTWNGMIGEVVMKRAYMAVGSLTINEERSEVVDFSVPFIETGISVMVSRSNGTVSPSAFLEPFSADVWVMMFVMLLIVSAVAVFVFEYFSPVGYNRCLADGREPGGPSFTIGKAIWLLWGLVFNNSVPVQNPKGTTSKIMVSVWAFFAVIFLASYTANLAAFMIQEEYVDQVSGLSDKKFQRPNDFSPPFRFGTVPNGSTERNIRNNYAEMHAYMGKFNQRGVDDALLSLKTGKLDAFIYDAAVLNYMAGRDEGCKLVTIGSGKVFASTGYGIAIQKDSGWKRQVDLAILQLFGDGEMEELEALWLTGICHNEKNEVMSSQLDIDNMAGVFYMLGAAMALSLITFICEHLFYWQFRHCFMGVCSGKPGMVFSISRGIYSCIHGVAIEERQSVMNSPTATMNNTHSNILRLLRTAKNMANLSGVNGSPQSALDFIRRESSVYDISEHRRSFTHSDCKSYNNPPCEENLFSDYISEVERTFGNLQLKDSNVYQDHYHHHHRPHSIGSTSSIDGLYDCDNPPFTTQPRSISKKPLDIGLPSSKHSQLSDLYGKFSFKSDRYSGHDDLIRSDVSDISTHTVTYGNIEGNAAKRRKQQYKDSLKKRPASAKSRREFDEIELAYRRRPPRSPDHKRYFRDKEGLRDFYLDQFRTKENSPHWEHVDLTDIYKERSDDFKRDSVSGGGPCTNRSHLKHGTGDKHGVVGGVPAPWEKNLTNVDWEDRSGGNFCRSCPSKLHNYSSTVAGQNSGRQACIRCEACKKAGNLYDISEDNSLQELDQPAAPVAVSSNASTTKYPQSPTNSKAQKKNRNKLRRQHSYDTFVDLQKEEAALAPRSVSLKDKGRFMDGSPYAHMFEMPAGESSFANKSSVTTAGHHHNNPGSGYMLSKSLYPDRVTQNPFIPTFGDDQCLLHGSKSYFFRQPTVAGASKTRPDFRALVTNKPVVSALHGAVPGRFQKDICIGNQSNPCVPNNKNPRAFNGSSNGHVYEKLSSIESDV
UniProt Q01098: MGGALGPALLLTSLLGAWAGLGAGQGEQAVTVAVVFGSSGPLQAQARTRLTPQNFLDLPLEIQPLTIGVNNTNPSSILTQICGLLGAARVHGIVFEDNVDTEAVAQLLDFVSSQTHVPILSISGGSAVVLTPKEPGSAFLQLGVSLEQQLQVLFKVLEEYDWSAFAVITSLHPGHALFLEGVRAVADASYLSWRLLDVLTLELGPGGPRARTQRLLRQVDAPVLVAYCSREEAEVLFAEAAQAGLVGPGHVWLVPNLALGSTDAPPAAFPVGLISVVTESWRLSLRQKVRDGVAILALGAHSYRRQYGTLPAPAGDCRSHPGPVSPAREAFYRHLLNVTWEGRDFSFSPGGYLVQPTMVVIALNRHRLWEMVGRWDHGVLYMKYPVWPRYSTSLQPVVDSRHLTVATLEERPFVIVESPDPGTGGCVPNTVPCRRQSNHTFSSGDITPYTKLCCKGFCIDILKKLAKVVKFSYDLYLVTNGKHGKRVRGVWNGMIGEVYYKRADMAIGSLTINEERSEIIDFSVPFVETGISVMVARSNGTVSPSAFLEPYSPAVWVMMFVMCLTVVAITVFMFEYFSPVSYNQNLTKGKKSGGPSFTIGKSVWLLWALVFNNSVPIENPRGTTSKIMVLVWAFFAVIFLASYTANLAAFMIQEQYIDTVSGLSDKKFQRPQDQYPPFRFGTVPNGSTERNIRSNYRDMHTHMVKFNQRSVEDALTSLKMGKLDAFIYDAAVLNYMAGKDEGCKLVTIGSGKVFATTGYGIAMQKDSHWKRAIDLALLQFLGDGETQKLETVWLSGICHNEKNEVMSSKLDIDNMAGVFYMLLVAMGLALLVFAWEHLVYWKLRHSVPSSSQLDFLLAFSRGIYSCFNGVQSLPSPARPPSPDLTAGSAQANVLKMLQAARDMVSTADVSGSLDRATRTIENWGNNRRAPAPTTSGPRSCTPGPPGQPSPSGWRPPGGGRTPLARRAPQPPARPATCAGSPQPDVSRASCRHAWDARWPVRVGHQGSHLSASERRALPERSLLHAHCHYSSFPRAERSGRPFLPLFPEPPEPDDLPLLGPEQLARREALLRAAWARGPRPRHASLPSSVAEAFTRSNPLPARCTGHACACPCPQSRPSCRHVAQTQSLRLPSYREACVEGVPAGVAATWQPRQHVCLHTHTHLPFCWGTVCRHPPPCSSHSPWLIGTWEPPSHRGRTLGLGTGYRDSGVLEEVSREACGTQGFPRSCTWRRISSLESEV
UniProt A2AIR5: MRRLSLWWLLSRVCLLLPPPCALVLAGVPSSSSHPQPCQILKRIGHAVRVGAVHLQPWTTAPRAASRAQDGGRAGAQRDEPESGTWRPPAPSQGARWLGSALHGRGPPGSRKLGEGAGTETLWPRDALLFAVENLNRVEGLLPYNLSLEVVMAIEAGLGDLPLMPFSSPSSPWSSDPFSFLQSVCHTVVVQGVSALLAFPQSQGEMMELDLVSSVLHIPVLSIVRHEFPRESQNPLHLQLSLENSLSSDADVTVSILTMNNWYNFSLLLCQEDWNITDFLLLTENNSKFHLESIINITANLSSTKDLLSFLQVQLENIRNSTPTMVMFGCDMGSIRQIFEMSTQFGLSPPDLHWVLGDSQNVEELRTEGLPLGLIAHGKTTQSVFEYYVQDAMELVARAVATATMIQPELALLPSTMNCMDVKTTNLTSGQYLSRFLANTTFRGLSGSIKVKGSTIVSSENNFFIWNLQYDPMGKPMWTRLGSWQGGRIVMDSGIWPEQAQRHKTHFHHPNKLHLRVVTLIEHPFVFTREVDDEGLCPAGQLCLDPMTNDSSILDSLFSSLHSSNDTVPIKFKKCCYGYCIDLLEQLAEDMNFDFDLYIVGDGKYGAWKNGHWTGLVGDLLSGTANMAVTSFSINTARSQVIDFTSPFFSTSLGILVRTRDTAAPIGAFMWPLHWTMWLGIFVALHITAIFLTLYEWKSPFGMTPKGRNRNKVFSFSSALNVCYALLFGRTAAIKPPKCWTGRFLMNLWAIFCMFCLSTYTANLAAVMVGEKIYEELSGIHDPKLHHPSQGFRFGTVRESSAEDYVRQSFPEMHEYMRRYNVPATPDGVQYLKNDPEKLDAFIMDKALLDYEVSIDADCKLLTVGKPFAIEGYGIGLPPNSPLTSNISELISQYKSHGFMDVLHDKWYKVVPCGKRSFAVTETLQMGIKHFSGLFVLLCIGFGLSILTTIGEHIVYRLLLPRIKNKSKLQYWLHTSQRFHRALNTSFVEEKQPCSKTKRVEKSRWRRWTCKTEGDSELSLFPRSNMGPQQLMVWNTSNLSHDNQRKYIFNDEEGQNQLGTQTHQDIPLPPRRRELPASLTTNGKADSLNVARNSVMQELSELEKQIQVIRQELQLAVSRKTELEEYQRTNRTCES

Key:
[1] = target: T1, Glutamate NMDA receptor (Mus musculus) (UniProt P35436+Q91ZU9+Q03391+P35438+Q01097+Q01098+A2AIR5); assay: Inhibition of NMDAR-mediated extrasynaptic current in mouse acute hippocampus by whole-cell patch-clamp recording method; format: tissue-based
[2] = target: T1, Glutamate NMDA receptor (Mus musculus); assay: Inhibition of NMDAR in C57BL/6 mouse primary cortical neurons assessed as increase in NMDA-reduced p-CaMKII level by Western blot analysis; format: cell-based; settings: Primary cortical neuron
[3] = target: T1, Glutamate NMDA receptor (Mus musculus); assay: Inhibition of NMDAR in C57BL/6 mouse primary cortical neurons assessed as increase in NMDA-reduced p-CREB level by Western blot analysis; format: cell-based; settings: Primary cortical neuron
[4] = target: T1, Glutamate NMDA receptor (Mus musculus); assay: Inhibition of NMDAR-mediated synaptic current in mouse acute hippocampus by whole-cell patch-clamp recording method; format: tissue-based
[5] = target: T1, Glutamate NMDA receptor (Mus musculus); assay: Inhibition of NMDAR in C57BL/6 mouse primary cortical neurons assessed as increase in NMDA-reduced p-ERK level by Western blot analysis; format: cell-based; settings: Primary cortical neuron
[6] = target: T1, Glutamate NMDA receptor (Mus musculus); assay: Inhibition of NMDAR in C57BL/6 mouse primary cortical neurons assessed as increase in OGD/R-reduced p-Akt level by Western blot analysis; format: cell-based; settings: Primary cortical neuron
[7] = target: T1, Glutamate NMDA receptor (Mus musculus); assay: Inhibition of NMDAR in C57BL/6 mouse primary cortical neurons assessed as increase in NMDA-reduced p-Akt level by Western blot analysis; format: cell-based; settings: Primary cortical neuron
[8] = target: T2, Transient receptor potential cation channel subfamily M member 4 (Mus musculus) (UniProt Q7TN37); assay: Inhibition of TRPM4 in NMDA-treated C57BL/6 mouse primary cortical neurons by immunofluorescence based analysis; format: cell-based; settings: Primary cortical neuron
T2 sequence (whole entry): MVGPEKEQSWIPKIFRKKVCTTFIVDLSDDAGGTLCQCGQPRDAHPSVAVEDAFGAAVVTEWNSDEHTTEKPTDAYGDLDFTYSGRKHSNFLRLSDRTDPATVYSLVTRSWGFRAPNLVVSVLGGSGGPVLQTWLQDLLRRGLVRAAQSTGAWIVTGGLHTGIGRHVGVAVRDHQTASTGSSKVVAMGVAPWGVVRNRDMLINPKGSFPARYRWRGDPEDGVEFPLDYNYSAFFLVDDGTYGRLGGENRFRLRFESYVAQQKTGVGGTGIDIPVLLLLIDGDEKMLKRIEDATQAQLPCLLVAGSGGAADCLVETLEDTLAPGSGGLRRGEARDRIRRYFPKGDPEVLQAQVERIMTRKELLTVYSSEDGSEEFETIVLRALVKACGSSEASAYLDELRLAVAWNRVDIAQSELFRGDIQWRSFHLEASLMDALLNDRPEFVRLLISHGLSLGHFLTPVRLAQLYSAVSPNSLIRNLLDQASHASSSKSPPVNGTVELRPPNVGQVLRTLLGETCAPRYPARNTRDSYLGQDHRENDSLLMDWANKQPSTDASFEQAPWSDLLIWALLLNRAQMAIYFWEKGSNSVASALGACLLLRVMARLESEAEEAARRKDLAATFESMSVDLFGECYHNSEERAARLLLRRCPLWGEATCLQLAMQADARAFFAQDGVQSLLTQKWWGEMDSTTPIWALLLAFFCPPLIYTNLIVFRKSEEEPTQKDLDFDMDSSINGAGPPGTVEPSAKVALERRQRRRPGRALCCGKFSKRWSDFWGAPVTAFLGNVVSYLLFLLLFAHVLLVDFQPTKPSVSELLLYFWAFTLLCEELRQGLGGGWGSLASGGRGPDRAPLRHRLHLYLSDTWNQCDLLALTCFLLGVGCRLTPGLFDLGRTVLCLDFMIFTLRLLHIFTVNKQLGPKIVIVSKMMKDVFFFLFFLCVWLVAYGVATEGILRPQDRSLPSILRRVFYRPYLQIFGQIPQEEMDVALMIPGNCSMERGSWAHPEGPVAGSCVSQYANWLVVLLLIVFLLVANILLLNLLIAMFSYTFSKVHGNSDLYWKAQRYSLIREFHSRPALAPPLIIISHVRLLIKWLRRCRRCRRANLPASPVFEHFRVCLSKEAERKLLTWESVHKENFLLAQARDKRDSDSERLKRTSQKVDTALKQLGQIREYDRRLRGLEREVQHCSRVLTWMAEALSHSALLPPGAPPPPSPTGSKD

[9] = target: T1, Glutamate NMDA receptor (Mus musculus); assay: Inhibition of NMDAR in C57BL/6 mouse primary cortical neurons assessed as increase in OGD/R-reduced p-CREB level by Western blot analysis; format: cell-based; settings: Primary cortical neuron
[10] = target: T1, Glutamate NMDA receptor (Mus musculus); assay: Inhibition of NMDAR in C57BL/6 mouse primary cortical neurons assessed as increase in OGD/R-reduced p-CaMKII level by Western blot analysis; format: cell-based; settings: Primary cortical neuron
[11] = target: T1, Glutamate NMDA receptor (Mus musculus); assay: Inhibition of NMDAR in C57BL/6 mouse primary cortical neurons assessed as increase in OGD/R-reduced p-ERK level by Western blot analysis; format: cell-based; settings: Primary cortical neuron

CCN(CCN)C(C)c1c(F)ccc(C#N)c1F (stereo unspecified)
inhibition [1]: inactive | inhibition [2]: Active | inhibition [3]: Active | inhibition [4]: inactive | inhibition [5]: Active | inhibition [6]: Active | inhibition [7]: Active | inhibition [8]: Active | inhibition [9]: Active | inhibition [10]: Active | inhibition [11]: Active

Activity calls are given as the source filed them. No cut-off for these calls is given here.
